# Laboratory results published in ChEMBL document CHEMBL1133656, “Structural determinants of efficacy for kappa opioid receptors in the orvinol series: 7,7-spiro analogues of buprenorphine” (2000).
# Chains of the proteins cited; added tags and fusions are not shown.
# UniProt P41143, whole entry: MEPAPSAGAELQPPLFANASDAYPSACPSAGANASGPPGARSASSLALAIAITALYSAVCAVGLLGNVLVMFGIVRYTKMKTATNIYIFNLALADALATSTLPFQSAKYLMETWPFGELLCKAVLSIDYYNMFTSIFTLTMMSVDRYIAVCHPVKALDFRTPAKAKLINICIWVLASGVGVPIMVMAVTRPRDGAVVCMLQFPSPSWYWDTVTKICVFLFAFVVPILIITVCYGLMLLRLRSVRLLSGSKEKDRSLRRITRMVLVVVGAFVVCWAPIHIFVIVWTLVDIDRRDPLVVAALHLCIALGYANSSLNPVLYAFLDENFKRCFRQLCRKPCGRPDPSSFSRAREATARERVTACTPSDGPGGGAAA
# UniProt P41145, whole entry: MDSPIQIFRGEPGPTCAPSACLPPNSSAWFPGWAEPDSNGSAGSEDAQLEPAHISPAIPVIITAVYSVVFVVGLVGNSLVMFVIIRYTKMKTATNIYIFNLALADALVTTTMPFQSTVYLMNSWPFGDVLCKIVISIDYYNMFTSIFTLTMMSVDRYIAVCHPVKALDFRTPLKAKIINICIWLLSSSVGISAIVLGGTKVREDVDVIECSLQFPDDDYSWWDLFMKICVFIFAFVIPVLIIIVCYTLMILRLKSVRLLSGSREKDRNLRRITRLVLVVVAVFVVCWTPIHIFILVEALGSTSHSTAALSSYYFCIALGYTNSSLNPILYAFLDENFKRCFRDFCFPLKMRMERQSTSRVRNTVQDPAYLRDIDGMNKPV
# UniProt P35372, whole entry: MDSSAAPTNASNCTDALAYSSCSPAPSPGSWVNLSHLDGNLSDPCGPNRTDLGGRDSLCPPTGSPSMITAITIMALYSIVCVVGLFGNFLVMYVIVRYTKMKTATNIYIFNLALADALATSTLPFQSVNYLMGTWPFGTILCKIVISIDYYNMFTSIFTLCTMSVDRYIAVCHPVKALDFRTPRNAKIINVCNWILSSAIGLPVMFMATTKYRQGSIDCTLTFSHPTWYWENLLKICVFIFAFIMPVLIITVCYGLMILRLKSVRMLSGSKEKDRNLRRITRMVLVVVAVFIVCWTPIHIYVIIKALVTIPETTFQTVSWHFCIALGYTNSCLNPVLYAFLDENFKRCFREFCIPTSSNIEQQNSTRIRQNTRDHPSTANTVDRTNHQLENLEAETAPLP
# How the values were obtained:
# [1] = biological target: Delta-type opioid receptor (Homo sapiens) (UniProt P41143); assay: % stimulation of GTPgammaS binding in cloned human Opioid receptor delta 1 transfected into hamster ovary cells with respect to DPDPE
# [2] = biological target: Kappa-type opioid receptor (Homo sapiens) (UniProt P41145); assay: % stimulation of GTPgammaS binding in cloned human Opioid receptor kappa 1 transfected into hamster ovary cells with respect to U-69,593.
# [3] = biological target: Mu-type opioid receptor (Homo sapiens) (UniProt P35372); assay: % stimulation of GTPgammaS binding in cloned human Opioid receptor mu 1 transfected into hamster ovary cells with respect to DAMGO.
Compound,Stimulation [1] [%],Stimulation [2] [%],Stimulation [3] [%]
CO[C@]12C=CC3(CC14CCC(C)(C)[C@H]4O)C1Cc4ccc(O)c5c4C3(CCN1CC1CC1)[C@@H]2O5 (stereo not given in full),45.5,40,21
CO[C@]12C=CC3(CC14CCC[C@H]4O)C1Cc4ccc(O)c5c4C3(CCN1CC1CC1)[C@@H]2O5 (stereo not given in full),104,89,32
CO[C@]12C=CC3(CC14CCC[C@H]4O)C1Cc4ccc(O)c5c4C3(CCN1C)[C@@H]2O5 (stereo not given in full),111,88,
CO[C@]12C=CC3(CC14CCC(C)(C)[C@H]4O)C1Cc4ccc(O)c5c4C3(CCN1C)[C@@H]2O5 (stereo not given in full),100,21,
